Measured values taken from publication PMC3272584 (Bioorganic & medicinal chemistry, 2011).

System: rat neonatal microglia
Assay: Short-term microglia cell viability: LDH release
Conditions: short-term cell viability (90 min)

## 7,15-diisocyano-11(20)-amphilectene [Compound 3]
  LDH50 (concentration that caused 50% release of the total LDH content of microglia cells): >10 µM
